Source: ChEMBL document CHEMBL5726139, “Heterocyclic compounds and methods of their use” (2017)

Molecular target: T1, Type-2 angiotensin II receptor (Homo sapiens, UniProt P50052)
T1 sequence (P50052 whole entry): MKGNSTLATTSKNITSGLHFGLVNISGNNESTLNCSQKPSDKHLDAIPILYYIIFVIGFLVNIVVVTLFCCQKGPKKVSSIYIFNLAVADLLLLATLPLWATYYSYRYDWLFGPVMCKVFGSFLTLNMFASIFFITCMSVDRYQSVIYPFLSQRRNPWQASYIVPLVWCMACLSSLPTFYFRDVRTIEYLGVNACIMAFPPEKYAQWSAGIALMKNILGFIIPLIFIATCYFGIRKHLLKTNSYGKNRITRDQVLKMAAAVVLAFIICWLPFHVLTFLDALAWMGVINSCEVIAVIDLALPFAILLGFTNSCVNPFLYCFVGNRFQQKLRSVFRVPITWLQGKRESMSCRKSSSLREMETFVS
Assay: Receptor Binding Assay: 120 μL membrane ([…]) was incubated with 15 μL of [125I]-CGP42112A and 15 μL of compound at RT for 1.5 hrs. The binding reaction was stopped by rapid filtration through Unifilter GF/C plates (presoaked in 0.3% (v:v) BSA). Plate was washed three times with ice cold wash buffer. The filtration plates were dried at 37° C. overnight. 50 μL of scintillation cocktail was added to each well. Radioactivity was determined using MicroBetaTriluxmicroplate scintillation counter.

Q: For `O=C(O)[C@@H]1C[C@H](OCCCc2ccccc2)CN1C(=O)C(c1ccccc1)c1ccccc1`, which IC50 is on record?
A: Its IC50 is 181 nM.
